According to paper PMC13181292, “Receptor homodimerization significantly prolongs the lifetime of ligand-induced cross-linking of CLEC-2 but not GPVI” (Blood Vessels, Thrombosis & Hemostasis, 2026):

Target: the molecule itself
Experiment: SPR; the monomeric recombinant domain flowed over an immobilized surface of itself; Biacore T200, kinetic analysis with a global fitting model; n = 3

B1: monomeric C-type lectin-like domain of CLEC-2 (extracellular domain residues 55-229) (domain or fragment, UniProt Q9P126 55-229, looked up)
chain: SVMQRNYLQGENENRTGTLQQLAKRFCQYVVKQSELKGTFKGHKCSPCDTNWRYYGDSCYGFFRHNLTWEESKQYCTDMNATLLKIDNRNIVEYIKARTHLIRWVGLSRQKSNEVWKWEDGSVISENMFEFLEDGKGNMNCAYFHNGKMHPTFCENKHYLMCERKAGMTKVDQLP
notes: C-type lectin-like receptor 2 (CLEC-2), extracellular domain residues 55-229 with the C-type lectin-like domain; recombinant, monomeric (no Fc); also called recombinant monomeric CLEC-2; monovalent C-type lectin-like domain of CLEC-2
With B1 the Kd was 18.5 µM.
